Binding of CDR-mutated scFvs to a peptide of the spike HR2 region

All variants were tested on one target, the spike HR2 peptide PDVDLGDISGINAS (SARS-CoV-2).

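The parent was found by panning a naive human phage display library on the peptide. Variants in AAYL50 differ from the parent at up to three CDR positions; double and triple changes were sampled at random. In AlphaSeq, yeast of one mating type display the scFv and yeast of the other type display the target. Mating (16 h, 30 °C) was followed by selection of diploids and sequencing of their barcodes. Read counts were normalised to the haploid input and turned into Kd by a linear fit to BCL2-family pairs of known affinity, for each replicate. Each pool was mated in three replicate cultures.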

Parent scFv Ab-14: VH joined to VL by three GGGGS repeats. Changes lie in the light chain CDRs alone.
VH: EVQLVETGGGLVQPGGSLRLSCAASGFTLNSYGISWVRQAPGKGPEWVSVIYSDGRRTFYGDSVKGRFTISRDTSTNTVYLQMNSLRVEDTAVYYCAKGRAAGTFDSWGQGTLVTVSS
VL: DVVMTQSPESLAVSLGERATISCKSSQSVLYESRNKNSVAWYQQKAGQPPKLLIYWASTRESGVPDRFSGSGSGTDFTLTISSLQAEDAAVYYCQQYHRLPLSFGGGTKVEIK

The parent's light chain CDRs are KSSQSVLYESRNKNSVA, WASTRES, QQYHRLPLS; each variant's own CDRs replace them letter for letter.
The read-out is the apparent dissociation constant on a log10 scale (nM): the lower, the stronger.
Replicates are averaged; those with no signal do not enter the mean.
"n.d." means that the variant was in the library but no mating with the target was seen in that replicate; the authors take this as a sign of poor binding, and no number exists.

{"CDR-L1": "KSSQSNLMRSRNKNSVA", "CDR-L2": "WASTRES", "CDR-L3": "QQYHRLPLS", "log10 Kd (nM) by replicate": "2.46 2.07 2.51", "mean, log10 nM": "2.35", "control signals": "1 of 9 (4.55)"}
{"CDR-L1": "KSFQSVLYESRNKNSVA", "CDR-L2": "WASPRES", "CDR-L3": "QQYHRLPGS", "log10 Kd (nM) by replicate": "n.d. n.d. n.d.", "mean, log10 nM": "n.d.", "control signals": "0 of 9"}
{"CDR-L1": "KSSQSVLYESTNKNGVA", "CDR-L2": "WISTRES", "CDR-L3": "QQYHRLPLS", "log10 Kd (nM) by replicate": "n.d. 4.21 n.d.", "mean, log10 nM": "4.21", "control signals": "2 of 9 (3.17)"}
{"CDR-L1": "KSSQNVLYTSFNKNSVA", "CDR-L2": "WASTRES", "CDR-L3": "QQYHRLPLS", "log10 Kd (nM) by replicate": "0.62 0.86 0.67", "mean, log10 nM": "0.72", "control signals": "2 of 9 (5.32)"}
{"CDR-L1": "KSSQSVLYESRNKNSVA", "CDR-L2": "WALTREI", "CDR-L3": "QQYHRLPLS", "log10 Kd (nM) by replicate": "2.70 2.58 2.48", "mean, log10 nM": "2.59", "control signals": "0 of 9"}
{"CDR-L1": "KVSDSVLYESRNKNSVA", "CDR-L2": "WASTRES", "CDR-L3": "QQYHRLMLS", "log10 Kd (nM) by replicate": "3.40 3.57 4.13", "mean, log10 nM": "3.70", "control signals": "3 of 9 (3.90)"}
{"CDR-L1": "KSAQSVLYESRNKNSVN", "CDR-L2": "WWSTRES", "CDR-L3": "QQYHRLPLS", "log10 Kd (nM) by replicate": "n.d. n.d. n.d.", "mean, log10 nM": "n.d.", "control signals": "1 of 9 (3.98)"}
{"CDR-L1": "KSSQSVLYESRNKNSVA", "CDR-L2": "WALTRES", "CDR-L3": "QQYHQLPLS", "log10 Kd (nM) by replicate": "3.41 n.d. 3.15", "mean, log10 nM": "3.28", "control signals": "1 of 9 (5.12)"}
{"CDR-L1": "KRSQSVLYESRNKNAVA", "CDR-L2": "WASTRES", "CDR-L3": "QQMHRLPLS", "log10 Kd (nM) by replicate": "3.38 3.63 3.17", "mean, log10 nM": "3.39", "control signals": "3 of 9 (4.19)"}
{"CDR-L1": "KSSQSVLYESRNKSSVA", "CDR-L2": "WASTRES", "CDR-L3": "QQYHEAPLS", "log10 Kd (nM) by replicate": "n.d. n.d. n.d.", "mean, log10 nM": "n.d.", "control signals": "0 of 9"}
{"CDR-L1": "KSSQSVLYESRNCNSVA", "CDR-L2": "WASTRES", "CDR-L3": "QHYHRLPLN", "log10 Kd (nM) by replicate": "3.72 n.d. n.d.", "mean, log10 nM": "3.72", "control signals": "0 of 9"}
{"CDR-L1": "KSSQSELYMSRNKNSVA", "CDR-L2": "WASTRES", "CDR-L3": "QQYHRLPLK", "log10 Kd (nM) by replicate": "1.75 1.64 2.33", "mean, log10 nM": "1.91", "control signals": "0 of 9"}
{"CDR-L1": "KVSQSVLYESRNKDSVA", "CDR-L2": "WASTRES", "CDR-L3": "QQYHRLPFS", "log10 Kd (nM) by replicate": "1.00 1.13 1.14", "mean, log10 nM": "1.09", "control signals": "4 of 9 (3.79)"}
{"CDR-L1": "KSSQSVRYESNNKNSVA", "CDR-L2": "WASTRES", "CDR-L3": "QQYGRLPLS", "log10 Kd (nM) by replicate": "1.14 1.11 0.91", "mean, log10 nM": "1.05", "control signals": "0 of 9"}
{"CDR-L1": "WSSQSVLYESRNKYSVA", "CDR-L2": "WASTREV", "CDR-L3": "QQYHRLPLS", "log10 Kd (nM) by replicate": "2.52 2.05 1.98", "mean, log10 nM": "2.18", "control signals": "1 of 9 (3.55)"}
{"CDR-L1": "KSSQSVLYESRNKNAVA", "CDR-L2": "WACTRES", "CDR-L3": "QQYHRTPLS", "log10 Kd (nM) by replicate": "n.d. 3.31 5.92", "mean, log10 nM": "4.62", "control signals": "5 of 9 (4.05)"}
{"CDR-L1": "KLSQSVLYESRNKNSVA", "CDR-L2": "WASTVRS", "CDR-L3": "QQYHRLPLS", "log10 Kd (nM) by replicate": "0.32 0.61 0.61", "mean, log10 nM": "0.51", "control signals": "6 of 9 (4.70)"}
{"CDR-L1": "KSSQSVLYECRNKNSCA", "CDR-L2": "WASTRES", "CDR-L3": "QCYHRLPLS", "log10 Kd (nM) by replicate": "n.d. n.d. n.d.", "mean, log10 nM": "n.d.", "control signals": "0 of 9"}
{"CDR-L1": "KSSQSVLYKSRNKNSVA", "CDR-L2": "MASTRES", "CDR-L3": "QQYHQLPLS", "log10 Kd (nM) by replicate": "0.77 1.24 0.97", "mean, log10 nM": "0.99", "control signals": "5 of 9 (4.78)"}
{"CDR-L1": "KSSQSVSYESRNKNSVA", "CDR-L2": "WASTREK", "CDR-L3": "QMYHRLPLS", "log10 Kd (nM) by replicate": "1.09 1.18 1.16", "mean, log10 nM": "1.14", "control signals": "0 of 9"}
{"CDR-L1": "KSSQSVLYESRNKNSPA", "CDR-L2": "WASCRES", "CDR-L3": "QQYHRLPYS", "log10 Kd (nM) by replicate": "5.36 5.32 4.90", "mean, log10 nM": "5.19", "control signals": "5 of 9 (4.52)"}
{"CDR-L1": "KSSQSVLYESRNKNSVA", "CDR-L2": "WASTRDS", "CDR-L3": "QISHRLPLS", "log10 Kd (nM) by replicate": "1.29 1.81 1.23", "mean, log10 nM": "1.44", "control signals": "0 of 9"}
{"CDR-L1": "HSNQSVLYESRNKNSVK", "CDR-L2": "WASTRES", "CDR-L3": "QQYHRLPLS", "log10 Kd (nM) by replicate": "n.d. n.d. n.d.", "mean, log10 nM": "n.d.", "control signals": "0 of 9"}
{"CDR-L1": "KRSQEVLYESRNKNSVA", "CDR-L2": "WASTRES", "CDR-L3": "QQYSRLPLS", "log10 Kd (nM) by replicate": "0.68 0.63 0.40", "mean, log10 nM": "0.57", "control signals": "3 of 9 (4.04)"}
{"CDR-L1": "SSSQSVLYESRNWNSVA", "CDR-L2": "WASTRES", "CDR-L3": "QQYHRLPGS", "log10 Kd (nM) by replicate": "1.22 1.48 1.27", "mean, log10 nM": "1.32", "control signals": "3 of 9 (3.64)"}
{"CDR-L1": "WSSQSVLYESRNKTSVA", "CDR-L2": "VASTRES", "CDR-L3": "QQYHRLPLS", "log10 Kd (nM) by replicate": "3.98 4.86 n.d.", "mean, log10 nM": "4.42", "control signals": "4 of 9 (4.47)"}
{"CDR-L1": "KSSNSVRYESRNKNSVA", "CDR-L2": "SASTRES", "CDR-L3": "QQYHRLPLS", "log10 Kd (nM) by replicate": "0.51 0.73 0.65", "mean, log10 nM": "0.63", "control signals": "0 of 9"}

Top 4 of the variants detected in all replicates, tightest first:

CDR-L1,CDR-L2,CDR-L3,log10 Kd (nM) by replicate,"mean, log10 nM",control signals
KLSQSVLYESRNKNSVA,WASTVRS,QQYHRLPLS,0.32 0.61 0.61,0.51,6 of 9 (4.70)
KRSQEVLYESRNKNSVA,WASTRES,QQYSRLPLS,0.68 0.63 0.40,0.57,3 of 9 (4.04)
KSSNSVRYESRNKNSVA,SASTRES,QQYHRLPLS,0.51 0.73 0.65,0.63,0 of 9
KSSQNVLYTSFNKNSVA,WASTRES,QQYHRLPLS,0.62 0.86 0.67,0.72,2 of 9 (5.32)

For reference, the parent read 0.65 as the reference entry and 1.68 as a member of this library.
As a blank, each scFv also met three strains without target: over library AAYL50, 18% of these pairings were detected, typically at 4.19 and seldom below 2.99. The control count says in how many pairings with the empty strains this scFv gave a signal, with their mean in brackets.

Source: Engelhart et al. 2022 (doi:10.1038/s41597-022-01779-4), MIT Lincoln Laboratory and A-Alpha Bio; data file from the FLAb repository.